Bioassay records deposited in PubChem BioAssay by National Center for Advancing Translational Sciences (NCATS).
Compounds with a hit are over-represented: about 0.51% of the library has one in this group of screens.
CCT chaperon mod – modulators of cytosolic chaperonin (CCT/TRiC) activity; actives 0.3% (n = 360,000); purified chaperonin ATPase assay, HTRF ADP detection, 30 min; AID 651819; activity change, % (no concentration beside the values), hits read low; in the data active = activity change below about -30%
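We incubate TRiC, 40 or 20 nM final, with library compounds at 76 uM and 10 uM ATP for 30 min at 37 °C. ADP formed is detected with Transcreener HTRF reagents after 30 min at room temperature.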
Rango-impB inh – prevents formation of the Rango-importin beta complex. Q14974. Rango CFP/YFP FRET sensor + importin beta, 45 min. Potency, µM (top dose mostly 92.2 µM). actives 0.031% (n = 340,000). AID 540263; note: nearly all actives have a fitted effect of over 15% in size
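FRET biosensor Rango (snurportin 1 IBB between N-terminal EYFP and C-terminal Cerulean), 50 nM in PBS/1 mM DTT/0.02% Tween-20/0.1% BSA, preincubated 5 min RT with compound; 0.125 microM importin beta added, 45 min RT, CFP/YFP FRET ratio read.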
MmCpn inh – M. maripaludis TRiC chaperonin inhibition; actives 0.031% (n = 330,000); purified Mm-Cpn ATPase, ADP Transcreener TR-FRET; Potency, µM (top dose mostly 76.9 µM), most hits filed as inhibitors; active = well fitted curve in the direction sought with a large enough effect; inconclusive = small, poorly fitted or top-dose-only effect, or another doubt; inactive = no such curve, though single readings can be large; an effect the other way counts as inactive or inconclusive; note: nearly all actives have a fitted effect of over 80% in size
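Purified archaeal chaperonin (25 nM final) was preincubated with compound for 10 min at 37°C, then ATP (10 uM final) was added for 30 min at 37°C in Tris pH 7.4/KCl/MgCl2/DTT buffer. ADP was quantified by HTRF Transcreener TR-FRET.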
Rango release inh – inhibition of RanGTP-driven Rango-importin beta dissociation; Biochemical FRET Rango-importin beta, RanGTP-induced dissociation; Potency, µM (series often up to 46.1 µM); actives 0.071% (n = 340,000); AID 540253; note: nearly all actives have a fitted effect of over 45% in size
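FRET read at 45 min, room temperature: inhibitors block the CFP/YFP signal rise when RanGTP (0.6 uM Ran, 2 mM GTP, 0.2 uM RCC1) frees Rango (0.1 uM) from importin beta (0.25 uM). Pre-read after 5 min compound exposure flags interference.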
a7 integrin act – integrin-mediated muscular dystrophy alleviation activation; alpha7betagal myoblasts, beta-gal FDG fluorescence, 48 h; Potency, µM (top dose mostly 38.3 µM), hits mostly activators; actives 0.064% (n = 350,000); AID 624291; active = well fitted curve in the direction sought with a large enough effect; inconclusive = small, poorly fitted or top-dose-only effect, or another doubt; inactive = no such curve, though single readings can be large; an effect the other way counts as inactive or inconclusive; note: nearly all actives have a fitted effect of over 60% in size
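alpha7betagal+/- myoblasts (passage 13, 250/well) treated 48 h at 37C with compounds at 1:260 dilution of DMSO stock. Lysed, then beta-galactosidase activity read as FDG fluorescence (ex 480/em 540) after 30 min, with pre-read for autofluorescence.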
Large screens that a line does not name were inactive. Unless noted, calls come from the whole dose curve.

Cc1ccc(/C=C2\SC(=S)N(CCCC(=O)Nc3ccccn3)C2=O)cc1	none
Cc1ccc(S(=O)(=O)N2C[C@H]3C(=O)C[C@@H](c4ccc(Cl)cc4)N(S(=O)(=O)c4ccc(C)cc4)[C@H]3C[C@H]2c2ccc(Cl)cc2)cc1	none (no result: Rango-impB inh, MmCpn inh, Rango release inh, a7 integrin act)
O=C(NNC(=O)C12CC3CC(CC(C3)C1)C2)c1ccccc1F	CCT chaperon mod -45
O=C(CSc1nnc(C2CC2)n1C1CC1)c1cccs1	a7 integrin act 10µM
CCc1nnc(NC(=O)c2ccc(S(=O)(=O)NCC(C)C)cc2)s1	a7 integrin act 13µM
CCc1nnc(NC(=O)c2ccc(NC(=O)C(C)C)cc2)s1	none
CCCc1c(C(=O)OCC)sc(N)c1C#N	a7 integrin act inconclusive
CCOC(=O)c1sc(N)c(C#N)c1CSc1nnc(C2CC2)n1N	CCT chaperon mod -39
COc1ccc(Cl)cc1NC(=O)CC(=O)Nc1cc(Cl)ccc1OC	a7 integrin act 14µM
COc1ccc(Cl)cc1NC(=O)Cn1cccc1	none
O=C(C[C@H]1C[C@H](C(=O)N2CCCCC2)[C@@]2(CCc3ccccc3)c3[nH]c4cc(-c5ccco5)ccc4c3CCN2C1=O)NCCC1=CCCCC1	CCT chaperon mod -89, Rango-impB inh inconclusive
CCOc1ccccc1NC(=O)c1cc(S(=O)(=O)NCc2ccco2)ccc1F	CCT chaperon mod -67
COc1ccc(OC)c(NC(=O)c2cc(S(=O)(=O)NCc3ccco3)ccc2F)c1	Rango-impB inh inconclusive
COc1cc(C2OC(=O)c3c2ccc(OC)c3OC)ccc1O (stereo not drawn)	none (no result: CCT chaperon mod, Rango-impB inh, Rango release inh, a7 integrin act)
O=c1cc(-c2ccc(O)cc2)oc2ccccc12	Rango-impB inh inconclusive, Rango release inh inconclusive
COc1ccc(-c2cc(=O)c3ccccc3o2)cc1	CCT chaperon mod -46
Cc1ccc(NS(=O)(=O)c2c(C)[nH]c(=O)[nH]c2=O)c(C)c1	none
Cc1cccc(C)c1NS(=O)(=O)c1c(C)[nH]c(=O)[nH]c1=O	CCT chaperon mod -37
CCOc1ccc(/C=C2\SC(=O)N(CCNC(=O)C3COc4ccccc4O3)C2=O)cc1OC (stereo not drawn)	CCT chaperon mod -35, Rango-impB inh inconclusive
C#CCOCCOCCOCCNc1nc(N2CCN(C(=O)C([C@@H](C)O)n3cc([C@@H](N)CCCCN)nn3)CC2)nc(N2CCN(C(=O)[C@H](CCCN=C(N)N)n3cc(C(N)[C@@H](C)CC)nn3)CC2)n1 (stereo partly drawn)	Rango-impB inh 52µM
C#CCOCCOCCOCCNc1nc(N2CCN(C(=O)CCCCCCCCCCNC(=O)[C@H](CCCCN)n3cc(C[C@@H](C)CC)nn3)CC2)nc(N2CCN(C(=O)CCCCCCCCCCNC(=O)[C@H](CCCN=C(N)N)n3cc(C[C@@H](C)CC)nn3)CC2)n1	Rango-impB inh 65µM, Rango release inh inconclusive
C#CCOCCOCCOCCNc1nc(N2CCOCC2)nc(N2CCN(C(=O)[C@H](CCC(=O)O)n3cc(C(N)[C@H](C)CC)nn3)CC2)n1 (stereo partly drawn)	none (no result: MmCpn inh)
C#CCOCCOCCOCCNc1nc(N2CCN(C(=O)[C@H](CCC(=O)O)n3cc(CN)nn3)CC2)nc(N2CCN(C(=O)[C@H](CCC(=O)O)n3cc([C@@H](N)[C@H](C)CC)nn3)CC2)n1	CCT chaperon mod -33
CC1(C(=O)NS(=O)(=O)c2cccc(C#N)c2)CCN1C(=O)Cc1ccccc1Cl (stereo not drawn)	none (no result: Rango-impB inh, MmCpn inh, Rango release inh, a7 integrin act)
COc1ccc2c3c(c(=O)oc2c1)C1O[C@](CCCCN2C(=O)c4ccccc4C2=O)(Cc2cc(OC)c(OC)cc21)O3	none (no result: CCT chaperon mod, Rango-impB inh, Rango release inh, a7 integrin act)
COc1cccc(C(=O)Nc2nnc(S(=O)(=O)N3CCCC3)s2)c1	MmCpn inh inconclusive
COc1cc(C(=O)Nc2nnc(S(=O)(=O)N3CCCCCC3)s2)cc(OC)c1OC	CCT chaperon mod -32
CN(Cc1ccc(Cl)c(Cl)c1)C(c1cc2ccccc2o1)c1nnnn1C(C)(C)C (stereo not drawn)	none (no result: Rango-impB inh, MmCpn inh, Rango release inh, a7 integrin act)
CCC(NS(=O)(=O)c1cnn(CC)c1)c1ccccc1 (stereo not drawn)	none
CCC(NS(=O)(=O)c1cn(C)nc1C)c1ccccc1 (stereo not drawn)	CCT chaperon mod -31
Cn1c(CN2CCCC2)nc2cc(NC(=O)c3ccc(Cl)cc3)ccc21	none
CCOC(=O)N1CCN(Cc2nc3cc(NC(=O)c4ccco4)ccc3n2C)CC1	CCT chaperon mod -58
CCCC(=O)Nc1ccc2c(c1)nc(CN1CCN(C(=O)OCC)CC1)n2C	none
Cn1c(CN2CCCCC2)nc2cc(NC(=O)c3ccc(Cl)cc3)ccc21	CCT chaperon mod -48
Cc1ccc(S(=O)(=O)N2CCCC(C(=O)NCCc3ccc(Cl)cc3)C2)cc1 (stereo not drawn)	none (no result: Rango-impB inh, MmCpn inh, Rango release inh)
COc1ccc(N(CC(=O)Nc2nccs2)S(=O)(=O)c2c(C)[nH]c(=O)[nH]c2=O)cc1	CCT chaperon mod -37
C=CCOC(=O)C1=C(C)OC(N)=C(C#N)C1c1ccc(OC)c(CSc2ccccn2)c1 (stereo not drawn)	CCT chaperon mod -85
Cc1cccc(C)c1-n1nnnc1C1(C)CCC(=O)N1CCc1ccc(O)cc1 (stereo not drawn)	none (no result: Rango-impB inh, MmCpn inh, Rango release inh, a7 integrin act)
Cn1ccc2cc(-c3ccc4ncnc(NCc5cccc(F)c5)c4c3)ccc21	none (no result: CCT chaperon mod, Rango-impB inh, Rango release inh, a7 integrin act)
COc1ccc(N(CC(=O)NCC2CCCO2)S(=O)(=O)c2c(C)noc2C)cc1 (stereo not drawn)	CCT chaperon mod -65
Cc1cc(OCC(=O)OCC(=O)NCc2cccs2)ccc1Cl	CCT chaperon mod -33
Cc1cc(C)cc(OCC(=O)OCC(=O)NCc2cccs2)c1	none
Cc1ccc(NC(=C(C#N)C#N)c2ccccc2)cc1	none (no result: Rango-impB inh, MmCpn inh, Rango release inh)
COc1ccc(CNC(=O)CN(C(=O)c2csnn2)c2ccc(C(C)=O)cc2)cc1	CCT chaperon mod -40
COCCN1C=C(C(=O)OC)C(c2ccccc2Cl)C(C(=O)OC)=C1	Rango-impB inh inconclusive, Rango release inh inconclusive, a7 integrin act 8.9µM
COCCN1C=C(C(=O)OC)C(c2cc(Br)c(OC)c(OC)c2)C(C(=O)OC)=C1	Rango-impB inh inconclusive, Rango release inh inconclusive
COC(=O)C1=CN(Cc2ccccc2)C=C(C(=O)OC)C1c1ccc(O)c(OC)c1	Rango-impB inh inconclusive
COC(=O)C1=CN(Cc2ccccc2)C=C(C(=O)OC)C1c1ccc(OC)c(OC)c1	Rango-impB inh inconclusive, Rango release inh 13µM
CC1CCN(S(=O)(=O)c2ccc3c(c2)CCC(=O)N3CC(=O)Nc2cccc(C#N)c2)CC1	none (no result: CCT chaperon mod, Rango-impB inh, Rango release inh, a7 integrin act)
COCCSc1ccccc1C(=O)Nc1ccncc1	none
COCCSc1ccccc1C(=O)Nc1cc(C)cc(C)c1	a7 integrin act 4.5µM
CC/C(=N\NC(=O)c1nnn(-c2nonc2N)c1CN(C)c1ccccc1)c1ccccc1	CCT chaperon mod -67, Rango release inh inconclusive, a7 integrin act inconclusive
